The assay concerns the target T1, MPO (Homo sapiens, UniProt P05164).
T1 construct: endogenous in cells; host or cells: human whole blood leukocytes, LPS-stimulated
Nature of the assay: Human Whole Blood Assay for Irreversible Inhibition of MPO. The settings on record: LPS-stimulated human whole blood, 4 hour incubation; irreversible inhibition of active MPO. It is filed as cell-based. Here is the method:
To measure the inhibition of MPO activity in a biological system in the present invention, bioassays were performed with human whole blood that was collected from medication-free, human volunteers in heparin treated tubes (APP Pharmaceuticals, LLC, cat # NDC#63323-047-10, #4710). Blood was aliquoted and treated with different concentrations of the MPO inhibitor or vehicle control and co-treated with or without bacterial lipopolysaccharide (LPS, InVivogen) to stimulate blood leukocytes to simultaneously generate H2O2 (a required MPO substrate) and the release of MPO. After a 4 hour incubation at room temperature the plasma fraction was collected following a 2000×g centrifugation at 4° C.
The plasma fraction was divided in two for analysis of total MPO and active MPO. The total MPO content was determined using a standard sandwich ELISA (capture and detection antibodies: Cell Sciences, Cat# HP9048, and Cell Sciences, Cat# HM2164, clone 266-6K1) and calculated relative to a standard curve of purified MPO (myeloperoxidase, Calbiochem, cat#475911) that was prepared by dilution in the autologous donor plasma. The MPO activity is determined by capturing the total MPO from plasma using the capture step as described for the above ELISA method. […]

Protein sequences, listed by entry. Tags and fused reporters are not part of them. Residues count along the entry.
UniProt P05164, 279-745 limits assumed: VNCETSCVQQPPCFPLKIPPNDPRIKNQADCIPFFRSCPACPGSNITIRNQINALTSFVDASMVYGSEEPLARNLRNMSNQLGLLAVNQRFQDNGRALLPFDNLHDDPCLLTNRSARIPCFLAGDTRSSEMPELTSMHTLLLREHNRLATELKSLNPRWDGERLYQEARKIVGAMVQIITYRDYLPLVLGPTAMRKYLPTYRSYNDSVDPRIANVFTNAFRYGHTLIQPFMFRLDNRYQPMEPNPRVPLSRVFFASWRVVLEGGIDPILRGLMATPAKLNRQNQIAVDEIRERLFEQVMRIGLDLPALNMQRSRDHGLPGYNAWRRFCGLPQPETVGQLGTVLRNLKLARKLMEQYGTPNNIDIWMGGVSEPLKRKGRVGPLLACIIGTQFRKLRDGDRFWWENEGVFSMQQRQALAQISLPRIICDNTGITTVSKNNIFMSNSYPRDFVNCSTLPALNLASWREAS
UniProt P05164, 165-273 limits assumed: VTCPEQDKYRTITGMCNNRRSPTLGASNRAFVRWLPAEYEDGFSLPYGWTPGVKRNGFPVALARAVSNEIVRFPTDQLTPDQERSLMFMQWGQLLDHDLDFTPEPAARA

Consider one molecule from patent US9771332B2, “2-thiopyrimidinones” (Pfizer Inc., priority 2015, dated 2017).

One may read the IC50 as the concentration that inhibits the measured activity by half. Read a high IC50 as weaker potency in that assay.

Structures are written as SMILES.

For `COc1ccc(Cl)cc1-c1cc(=O)[nH]c(=S)n1CC(N)=O` [F, 2-(6-(5-chloro-2-methoxyphenyl)-4-oxo-2-thioxo-3,4-dihydropyrimidin-1(2H)-yl)acetamide], inhibition was half-maximal at 1.9 µM (IC50).
